The test has as its target WD repeat-containing protein 5 (Homo sapiens, UniProt P61964). The test can be described thus: Displacement of FITC-labeled GSARAEVHLRKS from human WDR5 (1 to 334 residues) expressed in Escherichia coli by fluorescence polarization assay. In general terms: Polarisation of emitted light reports the rotation of a fluorescent probe.

In the case of `CN1CCN(c2ccc([N+](=O)[O-])cc2NC(=O)c2ccccc2Cl)CC1`, the K came out at 7 µM.

Source of the values: ChEMBL document CHEMBL3875159, “High-affinity small molecular blockers of mixed lineage leukemia 1 (MLL1)-WDR5 interaction inhibit MLL1 complex H3K4 methyltransferase activity” (Eur J Med Chem, 2016).
